Where “and” joins values, the source holds several entries; their conditions need not be identical. Equal values may be shown once.
Molecular target: D(4) dopamine receptor (Homo sapiens, UniProt P21917)

Chains of the proteins cited; added tags and fusions are not shown.
UniProt P21917, whole entry: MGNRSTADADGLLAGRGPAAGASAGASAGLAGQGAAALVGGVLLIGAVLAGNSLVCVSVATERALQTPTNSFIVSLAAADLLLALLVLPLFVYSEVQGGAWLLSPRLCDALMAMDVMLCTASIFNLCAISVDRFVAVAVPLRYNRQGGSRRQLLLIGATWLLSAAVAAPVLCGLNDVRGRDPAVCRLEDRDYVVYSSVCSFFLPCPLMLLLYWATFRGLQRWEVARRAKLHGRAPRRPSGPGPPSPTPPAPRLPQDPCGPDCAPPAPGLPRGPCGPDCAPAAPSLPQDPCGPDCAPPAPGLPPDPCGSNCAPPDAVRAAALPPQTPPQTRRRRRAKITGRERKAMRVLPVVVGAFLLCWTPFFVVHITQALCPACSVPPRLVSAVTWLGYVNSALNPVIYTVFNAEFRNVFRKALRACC

Ki: 965 nM and 1010 nM
Compound: CCN1CCCC1CNC(=O)c1cc(S(N)(=O)=O)ccc1OC (stereo unspecified) [N-[(1-ethylpyrrolidin-2-yl)methyl]-2-methoxy-5-sulfamoylbenzamide]

— BindingDB's records for doi:10.1016/0014-2999(93)90365-o (University of Toronto, 1993)
